Series [1] is described as follows: Doxycycline Hyclate Compatibility Test. Format: physicochemical. The settings on record: tested after the storage for up to 3 weeks.
Series [2] is described as follows: Doxycycline Monohydrate Compatibility Test. Particulars: tested after the storage for up to 3 weeks. Format: physicochemical. The protocol:
A similar compatibility study was conducted for Doxycycline Hyclate and Doxycycline Monohydrate.
Different compositions of hydrophilic and hydrophobic solvents containing Doxycycline Hyclate (Set I and Set II) and Doxycycline Monohydrate (Set III) were prepared by weighing the antibiotic in a glass vial and shaking overnight with each solvent investigated.
A similar compatibility test was performed on another form of Doxycycline—Doxycycline Monohydrate.

In the case of Cetearyl octanoate, the “Compatibility with Doxycycline Hyclate” value in series [1] is recorded as “Yes”. Besides, the “Compatibility with Doxycycline Monohydrate” value in series [2] was “Yes”. The “Compatibility with MCH” value (oily emollients, MCH:excipient 1:250, 25° C. and 40° C., maximum sixty days) is on record as “compatible”. For the same substance, under “tested after the storage for up to 3 weeks”, the “Compatibility with Minocycline HCl” value is “Yes”.

The record behind these values is patent US10849847B2, “Compositions and methods for treating rosacea and acne” (Foamix Pharmaceuticals Ltd., priority 2016, dated 2020).
